## Yeast mating assay B: variants of the scFv Ab-14

Source: Li et al. 2023 (doi:10.1038/s41467-023-39022-2), MIT Lincoln Laboratory and A-Alpha Bio; data file from the FLAb repository.

The target is the same throughout: PDVDLGDISGINAS, from the HR2 region of SARS-CoV-2 spike.

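Phage display of a naive human antibody library on the peptide gave the parent. The variants were designed computationally from a first round of random CDR variants and then made and measured. Group labels follow the data file (En: ensemble of fine-tuned language models; GP: Gaussian process model; HC: hill climbing; Gen: genetic algorithm; Gibbs: Gibbs sampling; a sequence that several methods proposed may carry one label only). The scFvs were displayed on barcoded MATa yeast, the peptide on MATalpha yeast. Pairs that bind mate more often; barcode pairs of the diploids are counted by sequencing. Each replicate has its own calibration line, from reference interactions of the BCL2 family. Each pool was mated in six replicate cultures.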

Parent scFv Ab-14: VH joined to VL by a 15-residue (Gly4Ser)3 linker. Changes lie in the light chain CDRs alone.
VH: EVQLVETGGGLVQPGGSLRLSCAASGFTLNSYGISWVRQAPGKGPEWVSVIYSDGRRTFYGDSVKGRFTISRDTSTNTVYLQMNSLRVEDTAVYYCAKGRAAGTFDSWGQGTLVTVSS
VL: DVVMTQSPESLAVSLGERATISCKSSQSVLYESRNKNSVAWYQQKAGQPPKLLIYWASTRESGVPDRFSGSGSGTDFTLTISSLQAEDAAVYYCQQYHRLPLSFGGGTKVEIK

The parent's light chain CDRs are KSSQSVLYESRNKNSVA, WASTRES, QQYHRLPLS; each variant's own CDRs replace them letter for letter. This list holds designs with more than six substitutions. The read-out is the apparent dissociation constant on a log10 scale (nM): the lower, the stronger. "nd" marks a missing value. The strain was present, yet no cells mated with the target were sequenced in that replicate, which points to weak or no binding. A sequence measured in both rounds can read differently, since the two assays cover different ranges. Three control strains display no target. For all light chain designs, 4% of the pairings with them gave a signal, with a median of 2.64 and one signal in twenty below 1.59, so weak values seen in few replicates may be background. In the paper, a design with two or fewer of six values counts as a poor binder. Of ten entries with the parent sequence, four were seen in most replicates (averages 0.34 to 2.37), three in one and three in none, so single entries are noisy.

With TISEVMNTLTREGNNVA, DLQEREK, QQYFRLPLT [En_Gen] the result was 1.64, 1.90, 1.55, 0.95, 1.27, 1.55.
With KLSVSWLFESIEKNSVA, ERSTREN, QDYNRLPLS [En_HC] the result was 0.91, 0.40, 1.13, 0.92, 1.04, 1.49.
With LLSGSSGYEQRNKNSVA, DASTRLS, QAYHRLPLS [GP_Gibbs] the result was 0.21, 0.04, 0.36, 0.08, 0.22, 0.47.
With HITYGMMVHGRHSKSIA, QAETRAK, QQYDRLPLA [En_Gen] the result was 1.69, 2.17, 1.79, 1.94, 1.69, 2.21.
With KSSTSQEYEDRNKNSVA, HASTRLQ, QQYHRLPLS [GP_Gibbs] the result was 0.32, 0.10, -0.19, 0.21, 0.01, 0.02.
With KLSPSVEYESRLKNSVA, NASQRLE, QQYHRLPLS [GP_Gibbs] the result was 0.14, 0.24, 0.17, 0.13, 0.15, 0.10.
With TISQMTSLFSQSINNVA, EVSMREE, QQYDRLPLS [En_Gen] the result was 1.23, 1.21, 0.90, 0.99, 1.26, 1.44.
With NISQMFFMETKNVNNVA, QTSTRES, QDYHRLPLS [En_HC] the result was -0.38, -0.28, -0.31, -0.53, -0.39, -0.22.
With KLSASQLYESRNSNAVA, NASTRMM, QQYHRLPLS [GP_Gibbs] the result was -0.17, -0.22, -0.28, -0.04, -0.15, 0.18.
With KLSMVTGHLSMAKNNVA, EMVTREN, QQYNRLPLS [En_Gen] the result was 2.26, 2.36, nd, nd, nd, 2.87.
With KLLQNTAVGMRWANNVA, HMSTREP, QQYHRLPFV [En_Gen] the result was nd, nd, 1.38, 0.87, 2.56, 2.53.
With ILSQSVLLGMHTKNSVA, QATMRFN, QQYHRLPLM [En_HC] the result was nd, nd, nd, 1.45, nd, 2.09.
With LWSQSELLESRNHNSVA, DASTRCD, QQYHRLPLS [GP_Gibbs] the result was 0.43, 0.28, 0.32, 0.02, 0.32, 0.37.
With KLQQSELYMSRNCNSVA, DASQRES, QQYHRLPLS [GP_Gibbs] the result was 1.11, 1.56, 1.22, 1.37, 1.41, 1.34.
With KLSVSWLYESIEKNSVA, ERSTRED, QDYNRLPLS [En_HC] the result was 0.65, 0.52, 0.65, 0.24, 0.43, 0.63.
With KLQWSWLMQSRNKNSVA, HASMRCS, QQYHRLPLS [GP_Gibbs] the result was 1.19, 1.01, 1.60, 1.16, 1.16, 1.84.
With TLDMVARGLTRKEDSVA, DNSTRES, QQYDRLPLS [En_Gen] the result was nd, nd, nd, 1.26, 1.69, 2.14.
With RIQMGDLEGRTAWNNIA, NGEEIYR, QQYVRLPLY [En_Gibbs] the result was 1.88, 1.51, 1.40, 0.73, 1.34, nd.
With KISGSVMMLSRNKNSVA, EANTRES, QQYHRLPLS [GP_Gibbs] the result was 0.12, -0.30, -0.35, -0.17, -0.11, 0.15.
With HISQMVMMGSCNKNNVA, QVSTREE, QQYHRLPLS [En_HC] the result was 0.89, 0.94, 0.74, 0.91, 0.92, 1.00.
With KLSLFYRVETLQKNSVA, DNSTRES, QDYDRLPLS [En_HC] the result was nd, nd, 4.56, nd, 2.74, 2.95.
With KLQNSFLYGSRQSNNVA, EASQRES, QQYHRLPLS [GP_Gibbs] the result was 0.07, 0.00, 0.23, 0.02, 0.09, 0.25.
With RFTEHILGLENKIYAIA, NATKTME, QQYFRLPFA [En_Gibbs] the result was 0.80, 0.50, 0.81, 0.62, 0.45, 0.69.
With IVSQLMIWGMHAKNSIA, EAETRIN, QQYDRLPLF [En_Gen] the result was 1.68, 2.45, nd, 2.03, nd, 2.28.
With KLMQSALLESRNVNNVA, QASQREL, QDYHRLPLS [GP_Gibbs] the result was 0.17, 0.08, 0.16, -0.04, 0.34, 0.40.
With IVSQLMLWGMHAKNSIA, EAQTRVN, QQYDRLPLI [En_Gen] the result was 0.75, 1.06, 0.86, 0.48, 0.65, 0.53.
With HIPQMVMYGSCNKNNVA, QVSTREE, QQYHRLPLS [En_HC] the result was 0.62, 0.21, 0.10, -0.14, 0.34, 0.48.
With TLSQSTDLESVHKNSIA, DLMTRES, QQYHRLPLS [En_HC] the result was 1.12, 0.77, 0.33, 0.40, 0.46, 0.65.
With TITMFMDNLSHNRNNVA, DTSTLGS, QSYERLPLS [En_Gen] the result was 1.48, 0.83, 1.70, nd, 2.50, 2.29.
With TISQVMNTLTREGNNVA, DLAERFD, QQYFRLPLS [En_Gen] the result was 0.60, 0.55, 0.60, 0.42, 0.32, 0.56.
With KLMNSDLYESRNVNNVA, QASQREL, QQYHRLPLS [GP_Gibbs] the result was -0.01, -0.09, -0.08, -0.38, -0.24, -0.01.
With RLTQQMAGFNRHANAIA, SGAERQW, QQYARLPIS [En_Gibbs] the result was 1.27, 1.18, 0.97, 0.91, 1.12, 1.19.
With KMQQSQLYESRMSNAVA, NASYRMS, QQYHRLPLS [GP_Gibbs] the result was -0.01, 0.06, -0.06, -0.06, -0.22, 0.37.
With RLTEHTSERAYADASVA, DASTRND, QQYHRLPLE [En_Gibbs] the result was 0.83, 0.94, 1.00, 0.73, 0.66, 0.84.
With RLRFQDLGWSYDANNIA, GATLSIK, QQYGRLPLT [En_Gibbs] the result was 0.86, 0.97, 0.61, 0.75, 0.80, 1.06.
With NLRMKELGMSWNANNVA, DSENRIK, QQYSRLPLM [En_Gibbs] the result was 0.64, 0.82, 0.29, 0.87, 0.58, 0.67.
With HMNHEFLGYSNYEQAIA, HESQRLY, QQYSMLPLS [En_Gibbs] the result was 0.97, 1.21, 1.21, 0.58, 1.21, 1.27.
With KQSQSVLMGERNSNSVA, NASYRLS, QQYHRLPLS [GP_Gibbs] the result was 0.72, 0.55, 0.61, 0.41, 0.51, 0.69.

Excerpt, the first 6 entries:

Variant TISEVMNTLTREGNNVA, DLQEREK, QQYFRLPLT [En_Gen] showed 1.64, 1.90, 1.55, 0.95, 1.27, 1.55.
Variant KLSVSWLFESIEKNSVA, ERSTREN, QDYNRLPLS [En_HC] showed 0.91, 0.40, 1.13, 0.92, 1.04, 1.49.
Variant LLSGSSGYEQRNKNSVA, DASTRLS, QAYHRLPLS [GP_Gibbs] showed 0.21, 0.04, 0.36, 0.08, 0.22, 0.47.
Variant HITYGMMVHGRHSKSIA, QAETRAK, QQYDRLPLA [En_Gen] showed 1.69, 2.17, 1.79, 1.94, 1.69, 2.21.
Variant KSSTSQEYEDRNKNSVA, HASTRLQ, QQYHRLPLS [GP_Gibbs] showed 0.32, 0.10, -0.19, 0.21, 0.01, 0.02.
Variant KLSPSVEYESRLKNSVA, NASQRLE, QQYHRLPLS [GP_Gibbs] showed 0.14, 0.24, 0.17, 0.13, 0.15, 0.10.